## Ab-95 light chain CDR variants: yeast mating affinities

All variants were tested on one target, the spike HR2 peptide PDVDLGDISGINAS (SARS-CoV-2).

The variants keep the heavy chain, the linker and the frameworks of Ab-95 (scFv order VH, the linker GGGGSGGGGSGGGGS, VL).
VH: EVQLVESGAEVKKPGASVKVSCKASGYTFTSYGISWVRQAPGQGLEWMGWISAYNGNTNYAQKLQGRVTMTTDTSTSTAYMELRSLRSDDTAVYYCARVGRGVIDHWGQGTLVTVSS
VL: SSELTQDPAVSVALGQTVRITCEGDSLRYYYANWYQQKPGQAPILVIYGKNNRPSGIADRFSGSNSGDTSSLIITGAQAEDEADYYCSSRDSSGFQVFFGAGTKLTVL

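The parent was found by panning a naive human phage display library on the peptide. The library (AAYL52) carries one to three amino acid substitutions per variant, with no insertions or deletions. The assay is AlphaSeq: two haploid yeast populations carry antibody and antigen on their surface. After mating in shaken culture at 30 °C for 16 h, diploids were selected and their barcode pairs sequenced. The ratio of observed to expected reads was calibrated, replicate by replicate, on BCL2-family standards whose Kd was known from biolayer interferometry. There are three technical replicates.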

Variants are written as CDR1, CDR2 and CDR3 of the light chain (limits as in the source). Parent: EGDSLRYYYAN, GKNNRPS, SSRDSSGFQVF.
Values are log10 of the apparent Kd in nM; lower means stronger binding.
Where no diploid with the target was found in that replicate, the entry reads "nd": below detection, most likely a poor binder, though not proof of it.

| CDR-L1 | CDR-L2 | CDR-L3 | log10 Kd, replicates | empty controls |
|---|---|---|---|---|
| CGISLRYYYAN | GSNNRPS | SSRDSSGFQVF | 3.43 nd 3.35 | 5/9 (4.22) |
| EGWSLRHYYAN | GKNNRPS | SSRDSSGFQVF | 2.68 2.51 2.36 | 7/9 (3.71) |
| EGDTLRYYYAN | GKNNRPI | SSRDSSGVQVF | 3.36 3.68 2.89 | 6/9 (4.11) |
| EGDSLRQYYAN | GKNNRPR | SSRDSSGFQEF | 2.53 2.87 3.95 | 4/9 (3.82) |
| EGDSLRYYYAN | WTNNRPS | SSRPSSGFQVF | nd nd 4.52 | 5/9 (3.52) |
| EGDSLQYYYAN | GKNRRPL | SSRDSSGFQVF | 4.02 3.35 2.72 | 0/9 |
| EGWSLRYYYAN | GKNNRPP | SSRISSGFQVF | 3.43 3.48 3.17 | 4/9 (3.81) |
| EGDSLRYYYAN | GANNRPS | SSRLSSGFQVM | nd 4.85 nd | 1/9 (3.80) |
| AGDSLRYYYAN | GKANQPS | SSRDSSGFQVF | 3.64 3.97 3.55 | 3/9 (4.76) |
| EGDSLWYYYAN | GKNNSPS | SWRDSSGFQVF | nd 3.61 3.10 | 2/9 (3.95) |
| EEDSLRYYYAN | GKNSRPS | SSIDSSGFQVF | nd 2.97 4.46 | 2/9 (4.46) |
| EGDSLRYCYAN | GKNNRPS | SSQPSSGFQVF | 3.35 4.18 nd | 4/9 (3.46) |
| WGDSLRYYRAN | GKNNRPS | SSRDSSGFQLF | 3.79 3.35 3.57 | 2/9 (4.26) |
| EGDSLVYYYAN | GKNNRPS | KSRDSSGFQVF | nd nd nd | 2/9 (3.57) |
| EGDSLRYYYAN | GKNNSPA | GSRDSSGFQVF | 4.67 4.21 2.87 | 3/9 (3.95) |
| ECDSLRYYYAN | GENNRPS | SSRFSSGFQVF | 4.91 nd nd | 1/9 (4.52) |
| EGDSLRYYWAN | NKNNRPS | SSRDSSGFQFF | nd nd nd | 1/9 (4.11) |
| EGVSLRYYYAN | VKQNRPS | SSRDSSGFQVF | 4.02 nd nd | 2/9 (3.84) |
| EGDSLRYYYAA | GKRNRPK | SSRDSSGFQVF | nd 2.87 3.66 | 2/9 (3.83) |
| EWDSLRYYYAN | GKNNRPS | SWRDSSGAQVF | nd nd 3.95 | 2/9 (3.35) |
| EGDSLRYYYAN | GKNNRPA | FSRDRSGFQVF | 3.79 nd nd | 0/9 |
| EGDVLRYYYAN | QKNNRPS | SSRDSSGFSVF | nd nd nd | 0/9 |
| EGDSLRYYYAK | GKNMRPM | SSRDSSGFQVF | nd nd 3.61 | 1/9 (4.78) |
| EGDSLRYYYAN | GKNTRPS | LHRDSSGFQVF | 2.02 2.30 2.11 | 1/9 (4.85) |
| EGDSLRYYSAN | GVNNRPS | SSRDSMGFQVF | 2.92 3.24 nd | 2/9 (4.99) |
| WGDSLRYYYAN | GKNNRPP | SSRDSSGFDVF | 3.12 4.05 nd | 3/9 (4.08) |
| EGDSLRYYGAN | GKNNRPE | SSRDSSGFQVQ | 1.75 1.55 2.09 | 3/9 (3.85) |
| EGESLRYYYAN | GKNNRYS | SSRDSSGPQVF | nd 3.52 4.28 | 2/9 (3.95) |
| VGDSLRYYYMN | GKNNEPS | SSRDSSGFQVF | nd nd nd | 0/9 |
| EGDSLRDYFAN | GKNNRPS | SSRDSSGFFVF | 2.86 2.94 2.70 | 7/9 (3.98) |
| EGDSLRYTDAN | GKNNRPS | SSRDSSRFQVF | 2.03 2.14 1.76 | 5/9 (3.75) |
| EGDSLRYYGAN | GANNRPS | SSRDSSYFQVF | 2.40 1.81 1.18 | 6/9 (4.60) |
| EMDSLRYYYAN | GKGWRPS | SSRDSSGFQVF | nd 4.00 3.27 | 4/9 (4.51) |

Top 3 of the variants detected in all replicates, tightest first:

CDR-L1	CDR-L2	CDR-L3	log10 Kd, replicates	empty controls
EGDSLRYYGAN	GANNRPS	SSRDSSYFQVF	2.40 1.81 1.18	6/9 (4.60)
EGDSLRYYGAN	GKNNRPE	SSRDSSGFQVQ	1.75 1.55 2.09	3/9 (3.85)
EGDSLRYTDAN	GKNNRPS	SSRDSSRFQVF	2.03 2.14 1.76	5/9 (3.75)

Three control strains display no target. For library AAYL52, 28% of the pairings with them gave a signal, with a median of 3.91 and one signal in twenty below 2.90, so weak values seen in few replicates may be background. The control count says in how many pairings with the empty strains this scFv gave a signal, with their mean in brackets.

Values reported by Engelhart et al. 2022, doi:10.1038/s41597-022-01779-4 (FLAb copy).